Laboratory results published in patent publication US20220326229A1, “ASSAY FOR REAL-TIME SIMULTANEOUS RECRUITMENT OF ARRESTIN ISOFORMS TO G PROTEIN-COUPLED RECEPTORS” (Purdue Research Foundation, priority 2021, published 2022).

Sequences of proteins named here, by UniProt entry; tags and fusion partners are left off. A change or cut given only in a name is not applied to a line headed by its entry. A line that says so, or that is headed by a name, gives the form on record, which may keep a tag or linker.
UniProt P32300, with tags, fused parts or gaps: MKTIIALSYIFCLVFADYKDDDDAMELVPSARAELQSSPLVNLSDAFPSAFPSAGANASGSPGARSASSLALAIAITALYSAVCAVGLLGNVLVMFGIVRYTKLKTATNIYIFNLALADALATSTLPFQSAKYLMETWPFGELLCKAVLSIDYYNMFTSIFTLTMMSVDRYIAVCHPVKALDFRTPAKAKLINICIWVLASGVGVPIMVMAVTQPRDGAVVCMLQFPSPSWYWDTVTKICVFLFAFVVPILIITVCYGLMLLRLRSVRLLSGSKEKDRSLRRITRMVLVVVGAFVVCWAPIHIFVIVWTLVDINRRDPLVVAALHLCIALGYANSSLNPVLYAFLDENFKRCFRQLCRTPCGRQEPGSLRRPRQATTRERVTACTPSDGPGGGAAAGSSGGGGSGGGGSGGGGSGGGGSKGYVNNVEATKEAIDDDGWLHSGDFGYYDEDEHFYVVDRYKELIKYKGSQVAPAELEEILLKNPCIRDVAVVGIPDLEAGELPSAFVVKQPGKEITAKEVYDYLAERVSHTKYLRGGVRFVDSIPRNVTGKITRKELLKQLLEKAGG

Biological target: T1, δ opioid receptor (DOR) (Mus musculus, UniProt P32300)
T1 construct: influenza signal peptide (N); linker […]; expressed in transfected cells; host or cells: HEK293
Test: ClickArr assay: simultaneous recruitment of Barr1 (508 nm) and Barr2 (620 nm) to DOR in triply transfected HEK293 cells
Format: cell-based

YGGFL [leu-enkephalin]
Kinetics of Barr1 vs Barr2 recruitment (normalized β-arrestin signal over time): Recruitment of Barr1 is much slower than Barr2
